From patent US20220184032A1, “INDOLINE DERIVATIVES FOR TREATMENT AND/OR PREVENTION OF FIBROSIS DISEASES” (Taipei Medical University, priority 2015, published 2022)

System: CHO
Conditions: reference compound, second section (CHO + S9, HCA), 3.0E−07 M

## CO[C@@]12[C@H](COC(N)=O)C3=C(C(=O)C(C)=C(N)C3=O)N1C[C@@H]1N[C@@H]12 [Mitomycin C, reference compound]
  Test Result: + (p < 0.05 by t-test and % of micronucleated cells at least 3-fold higher than background levels.)
